The results in this text go back to patent US20210077420A1, “Methods of Treatment of Gout” (priority 2017, published 2021).

The series is described as follows: Solubility enhancement of MSU crystals in phosphate buffered saline (Examples 2A, 2B). The settings on record: Table 2. It counts as physicochemical. The procedure:
A phosphate buffered saline diluent was prepared by dissolving 8.2 g of NaCl and 0.68 g of KH2PO4 in 500 mL of deionised water in a 1 L flask. An NaOH solution was prepared by dissolving 0.399 g of NaOH in 100 mL of deionised water. 39.1 mL of the 0.1 M NaOH solution was then added to the 1 L flask and the volume was made up to 1 L with deionised water. The pH was adjusted to 7.4.
Approximately 5 mg of monosodium urate crystals was then suspended in 4.75 mL of the phosphate buffered saline diluent. […] This was then stirred for about 16 hours.

[1] abbreviates: 5% by volume solubility enhancer in PBS pH 7.4, control = 100%.

For `CCCCC/C=C\C/C=C\CCCCCCCC(=O)O` [Linoleic acid], under setting [1], the “% vs control” value is 115%.
For the compound `CCOCCOCCO` [Transcutol, 2-(2-ethoxyethoxy)ethanol], the “% vs control” value (1% by volume solubility enhancer in PBS) was found to be 128%, the “% vs control” value (2.5% by volume solubility enhancer in PBS) was found to be 131%, the “% vs control” value under setting [1] turned out to be 144% and the “% vs control” value (10% by volume solubility enhancer in PBS) came out at 153%.
